Outcome data for one molecule are collected here from PubChem BioAssay AID1189 (EPA DSSTox, 2008).

Some tests of the compounds listed are not included; inactive here does not mean inactive elsewhere. Active and inactive are the calls of the source.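 The calls were made as follows: active = a tumor-causing dose value with its tumor site reported for any sex and species group of a rodent or other animal cancer study; inconclusive = only studies judged inadequate by the national testing program; inactive = tested in at least one study, none positive.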 Entries that show only a call come without a potency.

The nature of the series: DSSTox (CPDBAS) Carcinogenic Potency Database Summary SingleCellCall Results. The conditions noted are these: animal chronic carcinogenicity bioassays, CPDB summary call. The source says: The Carcinogenic Potency Database (CPDB) is a unique and widely used international resource of the results of over 6500 chronic, long-term animal cancer tests on over 1500 chemical substances. The CPDB provides easy access to the bioassay literature, with qualitative and quantitative analyses of both positive and negative experiments that have been published over the past 50 years in the general literature and by the National Cancer Institute/National Toxicology Program. The CPDB standardizes the diverse literature of cancer bioassays that vary widely in protocol, histopathological examination and nomenclature, and in the published author's choices of what information to provide in their papers. Results are reported in the CPDB for tests in rats, mice, hamsters, dogs, and nonhuman primates, and are based on the most positive result among all experiments for each sex-species. The DSSTox CPDBAS (all species) file incorporates data from the CPDB Summary Tables for the full list of over 1500 chemical substances tested in at least one species. A summary SingleCellCall, based on experimental bioassay results of one or more species, is provided for the entire DSSTox CPDBAS file (see Source URL).
An assignment of categorical carcinogenic activity based on minimal evidence for or against activity. […]

Turning to `N#CC(C#N)=Cc1ccccc1Cl`, the result was inactive.
